Tests used:
[1] = tested on: BEAS-2B cells; test: MTT cell viability; settings: 48 hours
Description: The effect of the complex compound represented by the formula I on BEAS-2B cells, the human bronchial epithelial cell line, was investigated. The effect of the synthesized complex compound on cell viability at concentrations of 1,10, 50, 100, 200, 300 µM was measured by the MTT (3-(4,5-dimethylthiazol-2yl)-2,5-diphenyl tetrazolium bromide) method. 10 µl of the substances were added to 96-well plates at a concentration of 1.10, 50, 100, 200, and 300 µM, respectively. Then, 90 µl of BEAS-2B cells prepared with 10^5 cells/ml were added to the 96-well plate, incubated at 37°C, and the effects of cell viability after 48 hours were examined. After 48 hours incubations, 10 µl of 5 mg/ml MTT in freshly prepared phosphate buffer saline (PBS) was added to the wells and incubated for 3 hours. Dimethyl sulfoxide (DMSO) was added to dissolve the formazan crystals formed by reduction of MTT in living cells. After the solution was kept in the dark for 1 night, it was measured at 570 nm in the spectrometer the next day. The absorbance value of the DMSO control was subtracted from the absorbance of the other wells. Cell viability was calculated by comparison with control cells according to the following equation: %Cell Viability = (1−absorbance of the wells incubated with the complex compound)/(absorbance of controls) × 100 [formula]

[2] = tested on: IL-8 gene expression; test: IL-8 mRNA gene expression by qRT-PCR, with TNF-α inflammation model
Description: In order to understand the anti-inflammatory effects of the complex compound shown with formula I, an inflammation model was created in BEAS-2B cells with TNFα cytokine. 24 hours after inoculating BEAS-2B cells into 6-well plates at 3x10^6/3ml, the complex was incubated for 24 hours with concentrations of 10, 50, 100 µM. After incubation with the substances, 5 ng/ml TNF-α was added according to the experimental groups and incubated for 24 hours. After incubation, RNA isolation was performed using the kit (RNeasy Mini Kit of BEAS-2B cells, Qiagen). Complementary DNA (cDNA) was synthesized from 500 ng RNA with the kit (All-In-One 5X RT MasterMix) by measuring the concentrations of the isolated RNAs. IL-8 mRNA gene expression level in BEAS-2B cells incubated with agents and TNF-α was analysed by Real Time Polymerase Chain Reaction (qRT-PCR) method using kit (BrightGreen 2X qPCR MasterMix-ROX). IL-8 mRNA gene expression level was normalized by glyceraldehyde 3-phosphate dehydrogenase (GAPDH). Primer sequences are given in the sequence list as forward primer SEQ ID NO.1 and reverse primer as SEQ ID NO.2. The effect of the complex compound against IL-8 gene expression was examined.

[3] = tested on: BEAS-2B cells; test: Wound healing test (scratch); settings: 10 µM
Description: Wound healing test was performed to investigate the wound healing effect of the complex compound shown with formula I in BEAS-2B cells. BEAS-2B cells were inoculated into a 12-well cell culture dish of 10^6 cells. After 24 hours, the complex was incubated at a concentration of 10 µM for 24 hours. After incubation with the substances, 5 ng/ml TNF-α was added for inflammation and incubated for 24 hours. After approximately 24 hours, a wound was created with a 10 µL micro pipette tip on the surface, which filled the surface of the cell culture container to which they were attached to almost 100%. While creating the wound, the pipette tip was drawn at a constant speed from one end to the other on the cell culture dish in one go. BEAS-2B cells without substance and TNF-α incubation were used as control group. Wound healing activity was determined by visualizing the wound line with phase contrast microscope at 0, 24 and 48 hours and comparing with the control group. […] The improvement rates at 24 and 48 hours are shown in Figure 6 viewed under the microscope and in Figures 7 and 8, respectively.

N^1-1,1,1-Trifluoroacetylacetone-N^4-4-methoxysalicylidene-S-methylthiosemicarbazidato-zinc(II)
cell viability ([1]; 200 µM): 53.69% | cell viability ([1]; 300 µM): 41.76% | effect on cell viability at low doses ([1]; low doses): proliferative effect | IL-8 gene expression in inflammation model ([2]; BEAS-2B, 5 ng/ml TNF-α for 24 hours after incubation with complex, Figure 5): suppresses IL-8 gene expression at very high rates | effect against IL-8 gene expression ([2]; BEAS-2B, 10, 50, 100 µM, 24 hours, normalized by GAPDH): suppress IL-8 gene expression very highly | healing rate compared to the control ([3]; 24th hour after wound formation): higher | healing rate compared to the control ([3]; 48th hour after wound formation): higher | wound healing effect in the inflammation model compared to the control ([3]; inflammation induced by 5 ng/ml TNF α): higher rate of wound healing effect
